In this experiment the target is T1, Polyamine deacetylase HDAC10 (Homo sapiens, UniProt Q969S8).
T1 sequence (Q969S8 whole entry): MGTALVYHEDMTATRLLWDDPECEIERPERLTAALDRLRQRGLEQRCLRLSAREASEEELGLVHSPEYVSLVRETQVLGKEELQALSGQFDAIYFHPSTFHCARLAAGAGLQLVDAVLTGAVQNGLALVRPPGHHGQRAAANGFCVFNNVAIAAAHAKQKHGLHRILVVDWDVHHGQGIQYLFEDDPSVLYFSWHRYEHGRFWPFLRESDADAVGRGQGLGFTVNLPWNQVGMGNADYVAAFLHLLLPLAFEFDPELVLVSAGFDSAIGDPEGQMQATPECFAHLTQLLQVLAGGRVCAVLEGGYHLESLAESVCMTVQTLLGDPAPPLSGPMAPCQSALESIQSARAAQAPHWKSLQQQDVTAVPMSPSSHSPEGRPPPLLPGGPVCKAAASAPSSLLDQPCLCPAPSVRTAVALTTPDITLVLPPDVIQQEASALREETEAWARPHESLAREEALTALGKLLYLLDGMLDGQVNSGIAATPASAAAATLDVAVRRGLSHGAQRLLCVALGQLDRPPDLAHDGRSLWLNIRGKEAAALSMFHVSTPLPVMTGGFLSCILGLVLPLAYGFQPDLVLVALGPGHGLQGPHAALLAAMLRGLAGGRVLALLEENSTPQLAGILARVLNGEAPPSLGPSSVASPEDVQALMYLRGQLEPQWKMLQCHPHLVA
Put plainly: Inhibition of HDAC10 (unknown origin).

One may read the IC50 as the concentration that inhibits the measured activity by half. The low end stands for greater potency, the high end for weaker potency. Take `O=C(CCCCCCC(=O)Nc1ccccc1)NO` [VORINOSTAT]: the midpoint of inhibition, the IC50, lay at 238 nM.

The values above are taken from ChEMBL document CHEMBL5126566, “Comparison of three zinc binding groups for HDAC inhibitors - A potency, selectivity and enzymatic kinetics study” (Bioorg Med Chem Lett, 2022).
